This note sets out measurements from PubChem BioAssay AID1531 (NMMLSC, 2009).

The list shows a part of the results, in another mix than the full data. Active and inactive are the calls of the source. Cut-off read from the data, not from the text of the source: active = binding response below about 67% or above about 130%; inconclusive = no clear call, values can overlap the other calls; inactive = in between.

The target of the test is Mitogen-activated protein kinase kinase kinase 2 (Homo sapiens) (UniProt Q9Y2U5). Put plainly: wildtype MEKK2 PB1-MEK5 interaction, increase or decrease – biochemical, multiplex bead flow cytometry, Alexa488-MEK5, primary screen (AID 1531). The note with it: Alexa488-MEK5 binding to MEKK2 WT, at 10 µM, actives lie on both sides. On the technique in general: Flow cytometry measures light scatter and fluorescence of single cells or particles in a stream.
With `CC1(CBr)Cn2c(nc3ccccc3c2=O)S1` (stereo unspecified), the binding response (% of control) was inactive: 110%.
As to `O=[As](O)(c1ccccc1Br)c1ccccc1Br`, the binding response (% of control) is inactive: 91%.
In the case of `CC(C)/C=N\N=C(\N)N[N+](=O)[O-]`, the binding response (% of control) was inactive: 99%.
As for `CN(C(=O)Cc1ccc(Cl)c(Cl)c1)[C@@H]1CCCC[C@H]1N1CCCC1`, the binding response (% of control) is inactive: 86%.
As to `CC(C)(C)C(=O)NC(Sc1ncccn1)C(Cl)(Cl)Cl` (stereo unspecified), the binding response (% of control) is inactive: 90%.
In the case of `Clc1n[nH]nc1-c1nn[nH][15n]1`, the binding response (% of control) is inactive: 98%.
On to `CN(CCCl)Cc1cc(Cl)c(NC2=NCCN2)c(Cl)c1`, for which the binding response (% of control) was active: 142%.
As to `CCOP(=O)(Nc1ccc(C)cn1)OCC`, the binding response (% of control) is inactive: 103%.
As for `CCOP(=O)(NC(=NC(C)c1ccccc1)NC(C)c1ccccc1)OCC` (stereo unspecified), the binding response (% of control) is inactive: 100%.
For the molecule `O=P1(Nc2ccccn2)COc2ccccc2OC1`, the binding response (% of control) is inactive: 103%.
The figure for `CCC1=CC2Cc3nc4ccc(Cl)cc4c(N)c3C(C1)C2` (stereo unspecified) is active: 181%; for `O=P1(Nc2ccc(Br)cn2)COc2ccccc2OC1` it is inactive: 106%; for `O=[As](O)(c1cccs1)c1cccs1` it is inactive: 108%.
`Cc1ccc(OCC(=O)OC2CN3CCC2CC3)cc1` (stereo unspecified): the binding response (% of control) is inactive: 99%.
For `Nc1cccc([As](=O)(O)c2ccccc2)c1`, the binding response (% of control) is inactive: 76%.
The same measure for `O=P1(Nc2ncccn2)COc2ccccc2OC1`: inactive: 90%; for `O=C(/C=C/c1ccccc1)OC1CN2CCC1CC2` (stereo unspecified): inactive: 106%.
As to `CN(C)C1(CNC(=O)c2ccc(S(C)(=O)=O)cc2)CCCCC1`, the binding response (% of control) was inactive: 83%.
The figure for `CC1CCC(C(C)C)C(OP(=O)(Nc2ccccn2)c2ccccc2)C1` (stereo unspecified) is inactive: 95%.
The same measure for `Cc1ccc(C(=O)OC2CN3CCC2CC3)cc1` (stereo unspecified): inactive: 102%; for `CN(C(=O)Cc1ccc(Cl)c(Cl)c1)[C@H]1CC[C@@]2(CCCO2)C[C@@H]1N1CCCC1`: inactive: 101%.
Regarding `O=[N+]([O-])c1ccc2c(c1)nnn2O`, the binding response (% of control) is inactive: 109%.
As to `CN(C(=O)Cc1ccccc1)[C@@H]1CC[C@]2(CCCO2)C[C@H]1N1CCCC1`, the binding response (% of control) was inactive: 107%.
`CCOP1(=S)c2c(C)nn(CCC#N)c2N=C(c2ccc(F)cc2)N1C` (stereo unspecified): the binding response (% of control) was inactive: 102%.
The same measure for `NC(=O)Nc1ccc([As](=O)(O)O)cc1`: inactive: 103%; for `Nc1ccccc1[As](=O)(O)c1ccccc1`: inactive: 86%.
With `O=C(O)COc1ccc([As](=O)(O)O)cc1[N+](=O)[O-]`, the binding response (% of control) was inactive: 99%.
Turning to `CS(=O)(=O)c1cc([N+](=O)[O-])c2no[n+]([O-])c2c1`, the binding response (% of control) is inactive: 88%.
Consider `O=P(Nc1nccs1)(c1ccccc1)c1nc2ccccc2s1` (stereo unspecified), for which the binding response (% of control) is inactive: 101%.
`O=P(Nc1nccs1)(Oc1ccccc1)Oc1ccccc1`: the binding response (% of control) is inactive: 110%.
Take `CCOP1(=S)c2c(C)nn(CCC#N)c2N=C(c2ccccc2F)N1C` (stereo unspecified): the binding response (% of control) was inactive: 113%.
The same measure for `CCOP(=O)(Nc1cccc2ccccc12)OCC`: inactive: 94%; for `COc1cc(C2NCCC3(OCCO3)C2(C)C)cc(OC)c1OC` (stereo unspecified): inactive: 98%.
Regarding `CCCOP(=S)(Nc1nc(N)cc(=O)[nH]1)OCCC`, the binding response (% of control) is inactive: 65%.
Consider `Nc1cccc2c([As](=O)(O)O)cccc12`, for which the binding response (% of control) was inactive: 101%.
As for `Cc1ccc(NCCc2c([N+](=O)[O-])cc([N+](=O)[O-])cc2[N+](=O)[O-])cc1`, the binding response (% of control) is inactive: 91%.
`O=[As](O)(c1cccc(O)c1)c1cccc(O)c1`: the binding response (% of control) was inactive: 91%.
For the molecule `Cc1cccc(OCC(=O)OC2CN3CCC2CC3)c1` (stereo unspecified), the binding response (% of control) is inactive: 91%.
As for `CS(=O)(=O)c1ccc(Cl)c(NC(=O)COC(=O)C(O)(c2ccccc2)c2ccccc2)c1`, the binding response (% of control) was inactive: 109%.
The figure for `COc1cc(C(=O)NCC2(N3CCOCC3)CCCCC2)cc(Cl)c1OC(C)C` is inactive: 114%; for `O=[As](O)(O)c1cccnc1` it is active: -4%; for `O=C(OC1CN2CCC1CC2)c1ccc(Cl)cc1` (stereo unspecified) it is inactive: 107%.
Regarding `COc1ccc(N/C(=N/P(=O)(N2CCOCC2)N2CCOCC2)N2CCOCC2)cc1`, the binding response (% of control) was inactive: 108%.
For `COc1cc(I)ccc1[As](=O)(O)O`, the binding response (% of control) was inactive: 98%.
Regarding `COc1ccc2nc(NP(=O)(c3ccccc3)c3ccccc3)sc2c1`, the binding response (% of control) is inactive: 105%.
For `Cc1cc(=O)[nH]c(N[N+](=O)[O-])n1`, the binding response (% of control) is inactive: 95%.
As for `O=C(OC1CN2CCC1CC2)C12CC3CC(CC(C3)C1)C2` (stereo unspecified), the binding response (% of control) is inactive: 98%.
Turning to `Cc1c2c(nc3ccccc13)SC(C(Cl)Cl)C2` (stereo unspecified), the binding response (% of control) is inactive: 100%.
As to `O=[N+]([O-])c1cc([N+](=O)[O-])c(-c2ccn[nH]2)s1`, the binding response (% of control) was inactive: 93%.
The figure for `CCN(CC)C(=S)SC(NC=O)C(Cl)(Cl)Cl` (stereo unspecified) is inactive: 106%; for `CC(C)NC(=O)NP(=O)(Oc1ccccc1)Oc1ccccc1` it is inactive: 101%.
The same measure for `CC(C)c1ccc(OP(=O)(Nc2ccccn2)Oc2ccccc2F)cc1` (stereo unspecified): inactive: 92%; for `ClCCSc1nnc(-c2cccnc2)o1`: inactive: 95%.
As to `Cc1ccc2nc3c(c(C)c2c1)CC(C(Cl)Cl)S3` (stereo unspecified), the binding response (% of control) is inactive: 109%.
For `Cc1ccc(OP(=O)(Nc2ccc([N+](=O)[O-])cn2)Oc2ccc(C)cc2)cc1`, the binding response (% of control) is inactive: 89%.
The figure for `C[As](=O)(O)c1cccc(C(=O)O)c1` is inactive: 64%; for `O=[As](O)(c1ccc(O)cc1)c1ccccc1O` it is inactive: 112%.
Turning to `O=[N+]([O-])c1ccc(Nc2ccc(Oc3ccc([N+](=O)[O-])cc3[N+](=O)[O-])cc2)c([N+](=O)[O-])c1`, the binding response (% of control) is inactive: 99%.
The same measure for `O=P(Nc1ccccn1)(c1cccc2ccccc12)c1cccc2ccccc12`: inactive: 99%; for `Cc1cc(SC(NC=O)C(Cl)(Cl)Cl)ncn1` (stereo unspecified): inactive: 99%.
`CCOC(=O)Nc1cccc([As](=O)(O)O)c1`: the binding response (% of control) was inactive: 97%.
The same measure for `Cc1cc(SC(NC(=O)c2ccccc2)C(Cl)(Cl)Cl)nc(C(C)C)n1` (stereo unspecified): inactive: 130%.
Take `CCCCOc1ccc(C(=O)NCC2(N3CCCCC3)CCCCC2)cc1OC`: the binding response (% of control) was inactive: 102%.
As for `CCOC(=O)Nc1ccc([As](=O)(O)O)c(O)c1`, the binding response (% of control) is inactive: 106%.
Take `CCC(C)N(CC(C)C)C(=S)SC(NC(C)=O)C(Cl)(Cl)Cl` (stereo unspecified): the binding response (% of control) was inactive: 93%.
Regarding `CCOC(=O)c1ccc(NC(=O)C(C)(CCl)SC)cc1` (stereo unspecified), the binding response (% of control) is inactive: 97%.
For `O=C(OC1CN2CCC1CC2)c1cccc([N+](=O)[O-])c1` (stereo unspecified), the binding response (% of control) was inactive: 106%.
The same measure for `O=C(Nc1ccncc1[N+](=O)[O-])c1ccc([N+](=O)[O-])cc1[N+](=O)[O-]`: inactive: 109%.
Consider `COP1(=S)c2c(C)nn(CCC#N)c2N=C(c2ccc(F)cc2)N1C` (stereo unspecified), for which the binding response (% of control) is inactive: 97%.
The figure for `CN(C)C(=O)OCCc1n(C)cc[n+]1C` is inactive: 96%; for `CC(C)=N/N=C(\N)N[N+](=O)[O-]` it is inactive: 92%.
On to `CC1CCN(C(=O)Oc2c(Cl)cc(Cl)c3cccnc23)CC1`, for which the binding response (% of control) is inactive: 95%.
On to `C[N+]1=C2C=CC=CC=C2SC12C([N+](=O)[O-])=CC([N+](=O)[O-])=C[C-]2[N+](=O)[O-]` (stereo unspecified), for which the binding response (% of control) is active: 60% [inhibitor].
Turning to `Nc1ccc([As](=O)(O)c2ccc(N)cc2)cc1`, the binding response (% of control) is inactive: 100%.
On to `CCN(/C(=N/P(=O)(N1CCOCC1)N1CCOCC1)N1CCOCC1)c1ccc(OC)cc1`, for which the binding response (% of control) is inactive: 111%.
With `O=[N+]([O-])c1cccc2n[nH]nc12`, the binding response (% of control) is inactive: 100%.
For the molecule `CC(=O)N1C2C3N(C(C)=O)C1C1N(C(C)=O)C(C(N1C(C)=O)N3C(C)=O)N2C(C)=O`, the binding response (% of control) was inactive: 105%.
As to `CCc1nc2c(n1)c1c(non1O)c1c2no[n+]1[O-]`, the binding response (% of control) is inactive: 102%.
On to `O=[N+]([O-])c1cc([N+](=O)[O-])c(CCNc2ccccc2)c([N+](=O)[O-])c1`, for which the binding response (% of control) was inactive: 99%.
On to `Cc1ccc(NP(=O)(Oc2ccccc2)Oc2ccccc2)nc1`, for which the binding response (% of control) was inactive: 80%.
Regarding `COc1ccc(C2=NCC(CBr)S2)cc1` (stereo unspecified), the binding response (% of control) is inactive: 114%.
As for `O=[N+]([O-])c1cccc(NC2=NCC(CBr)S2)c1` (stereo unspecified), the binding response (% of control) was inactive: 96%.
Consider `O=C(O)CNc1ccc([As](=O)(O)O)cc1`, for which the binding response (% of control) is inactive: 96%.
Consider `CC(C)(C)C(=O)NC(Sc1ccncn1)C(Cl)(Cl)Cl` (stereo unspecified), for which the binding response (% of control) is inactive: 92%.
For `O=[N+]([O-])c1ncn(CCn2ncnc2[N+](=O)[O-])n1`, the binding response (% of control) is inactive: 101%.
Take `O=C(Nc1cc([As](=O)(O)O)ccc1O)c1ccccc1`: the binding response (% of control) was inactive: 95%.
For `CCN(N=Nc1nonc1N)c1nonc1N`, the binding response (% of control) is inactive: 102%.
On to `Nc1cccc2ccc([As](=O)(O)O)cc12`, for which the binding response (% of control) was inactive: 98%.
For the molecule `O=[N+]([O-])c1cc([N+](=O)[O-])c(CCN2CCOCC2)c([N+](=O)[O-])c1`, the binding response (% of control) was inactive: 102%.
The figure for `Cc1ccc(NP(=O)(Oc2ccccc2F)Oc2ccccc2F)nc1` is inactive: 103%; for `CN(C(=O)Cc1ccc(Cl)c(Cl)c1)[C@H]1CCCC[C@@H]1N1CCCC1` it is inactive: 115%; for `CCOP(=O)(Nc1ccccc1)OCC` it is inactive: 104%.
Regarding `Cc1cc(SC(NC(=O)c2ccc(F)cc2)C(Cl)(Cl)Cl)ncn1` (stereo unspecified), the binding response (% of control) was inactive: 115%.
Take `O=C(O)c1ccccc1[As](=O)(O)O`: the binding response (% of control) is inactive: 98%.
Turning to `CC(=O)Nc1ccc([As](=O)(O)O)cc1`, the binding response (% of control) is inactive: 98%.
Regarding `O=P(Nc1nc2ccc(Cl)cc2s1)(c1ccccc1)c1ccccc1`, the binding response (% of control) was inactive: 94%.
On to `CC(C)CC(=O)NC(Sc1ccc(Cl)cc1)C(Cl)(Cl)Cl` (stereo unspecified), for which the binding response (% of control) was inactive: 87%.
For the molecule `Nc1cc(N)c2nonc2c1[N+](=O)[O-]`, the binding response (% of control) is inactive: 108%.
Turning to `Cc1c2non([O-])c-2c(C)[n+](=O)[n+]1[O-]`, the binding response (% of control) is inactive: 92%.
Turning to `O=C(NC(Sc1ccncn1)C(Cl)(Cl)Cl)c1ccccc1` (stereo unspecified), the binding response (% of control) was inactive: 99%.
The figure for `Oc1ccccc1CNc1ccccn1` is inactive: 99%; for `Cc1ccc(OP(=O)(Nc2nccs2)Oc2ccc(C)cc2)cc1` it is inactive: 95%.
On to `COc1ccccc1OP(=O)(Nc1ccc(C)cn1)Oc1ccccc1OC`, for which the binding response (% of control) is inactive: 93%.
`Clc1ccc(Cl)c(NC2=NCC(CBr)S2)c1` (stereo unspecified): the binding response (% of control) is inactive: 104%.
The figure for `CN1CCCC(OC(=O)C(c2ccccc2)c2ccccc2)C1` (stereo unspecified) is inactive: 88%.
As to `NC(=O)c1cc([N+](=O)[O-])cc([N+](=O)[O-])c1N`, the binding response (% of control) was inactive: 86%.
